Our source for the logD values is ChEMBL document CHEMBL1124669, “Quaternary salts of 2-[(hydroxyimino)methyl]imidazole. 2. Preparation and in vitro and in vivo evaluation of 1-(alkoxymethyl)-2-[(hydroxyimino)methyl]-3-methylimida zolium halides for reactivation of organophosphorus-inhibited acetylcholinesterases” (1989).

Each structure is given as a SMILES string.

Data set [1] can be described thus: Partition coefficient (logD7.6). The conditions noted are these: octanol/water, pH 7.6.
Data set [2] can be described thus: Octanol buffer partition coefficient for 0.1M, at pH 7.6 in phosphate buffer. The conditions noted are these: octanol/water.

For `CCCC(=O)OC[n+]1ccn(C)c1/C=N/O.[Cl-]`, in data set [1], the logD was -1.53. Same read-out and setting: the result for `Cn1cc[n+](COC(=O)c2ccc3ccccc3c2)c1/C=N/O.[Cl-]` reads 0.52. On the same count and under the same terms, the figure for `Cn1cc[n+](COCc2ccccc2)c1/C=N/O.[Cl-]` is -1.3. Same read-out and setting: the result for `CCC(C)C(=O)OC[n+]1ccn(C)c1/C=N/O.[Cl-]` (configuration not stated) reads -1.21; that for `CCOC[n+]1ccn(C)c1/C=N/O.[Cl-]`, -2.7. Turning to `CC(C)CCOC[n+]1ccn(C)c1/C=N/O.[Cl-]`, the logD in data set [2] is -1.08. Turning to `Cn1cc[n+](COC2CCCCCC2)c1/C=N/O.[Cl-]`, the logD in data set [1] was -0.56. For `Cn1cc[n+](COC[n+]2ccn(C)c2/C=N/O)c1/C=N/O`, in data set [1], the logD is < -3. The same measure, in the same setting: the result for `CCCCCCCCOC[n+]1ccn(C)c1/C=N/O.[Cl-]` reads 0.88; that for `Cn1cc[n+](COCc2cccc3ccccc23)c1/C=N/O.[Cl-]`, -0.36; that for `Cn1cc[n+](COC(C)(C)C(C)(C)C)c1/C=N/O.[Cl-]`, -0.25. Compound `Cn1cc[n+](COCC2CCCc3ccccc32)c1/C=N/O.[Cl-]` (configuration not stated) showed a logD in data set [1] of 0.07. The same measure, in the same setting: the result for `Cn1cc[n+](CCC[n+]2ccn(C)c2/C=N/O)c1/C=N/O` reads < -3.

Turning to `CCC(OC[n+]1ccn(C)c1/C=N/O)C(C)(C)C.[Cl-]` (configuration not stated), the logD in data set [1] was -0.36. The same measure, in the same setting: the figure for `CCCC(CC)OC[n+]1ccn(C)c1/C=N/O.[Cl-]` (configuration not stated) is -0.86. `CCCCCCOC[n+]1ccn(C)c1/C=N/O.[Cl-]`: in data set [1], the log distribution coefficient (logD) is -0.11. Still for that read-out and setting: the figure for `CC(CC(C)(C)C)OC[n+]1ccn(C)c1/C=N/O.[Cl-]` (configuration not stated) is -0.28; for `CCC(C)C(C)OC[n+]1ccn(C)c1/C=N/O.[Cl-]` (configuration not stated) it is -0.76. Still for that read-out and setting: the result for `CC(OC[n+]1ccn(C)c1/C=N/O)C1CCCCC1.[Cl-]` (configuration not stated) reads 0.22; that for `CC(OC[n+]1ccn(C)c1/C=N/O)C(C)(C)C.[Cl-]` (configuration not stated), -0.68. For `CC(C)OC[n+]1ccn(C)c1/C=N/O.[Cl-]`, the logD in data set [1] was -2.17. Regarding `COC[n+]1ccn(C)c1/C=N/O.[Cl-]`, in data set [1], the pH-dependent lipophilicity (logD) is -3. The same measure, in the same setting: the figure for `Cn1cc[n+](COCCCc2ccccc2)c1/C=N/O.[Cl-]` is -0.45. On the same count and under the same terms, the figure for `Cn1cc[n+](COC(=O)C(C)(C)C)c1/C=N/O.[Cl-]` is -1.36; for `CCCC(OC[n+]1ccn(C)c1/C=N/O)C1CCCC1.[Cl-]` (configuration not stated) it is 0.22; for `Cn1cc[n+](COC2CCCCCCCCCCC2)c1/C=N/O.[Cl-]` it is 1.48. Same read-out and setting: the figure for `Cn1cc[n+](COC2CCC2)c1/C=N/O.[Cl-]` is -2.1; for `Cn1cc[n+](COC2CCCCC2)c1/C=N/O.[Cl-]` it is -1.2; for `Cn1c(/C=N/O)[n+](C)c2ccccc21.[Cl-]` it is -1.13. Consider `CCCC(C)OC[n+]1ccn(C)c1/C=N/O.[Cl-]` (configuration not stated), for which the logD in data set [1] was -1.12. Regarding `Cn1cc[n+](COC[n+]2ccccc2/C=N/O)c1/C=N/O.[Cl-].[Cl-]`, the logD in data set [1] was < -3. Same read-out and setting: the result for `O/N=C\c1cccc[n+]1COCCOC[n+]1ccccc1/C=N/O.[Cl-].[Cl-]` reads < -3. For `Cn1cc[n+](COCC(C)(C)C)c1/C=N/O.[Cl-]`, the logD in data set [1] is -0.91. The same measure, in the same setting: the figure for `Cn1cc[n+](COCC2CCCCC2)c1/C=N/O.[Cl-]` is -0.12. For `Cn1cc[n+](COC2CCCC2)c1/C=N/O.[Cl-]`, the pH-dependent lipophilicity (logD) in data set [1] was -1.46. The same measure, in the same setting: the figure for `Cc1n(C)cc[n+]1COC(C)C(C)(C)C.[Cl-]` (configuration not stated) is -1.71; for `Cn1cc[n+](CCCC[n+]2ccn(C)c2/C=N/O)c1/C=N/O` it is < -3.
